The assay has as its target ISGF3γ (UniProt Q00978). Put plainly: P-LISA interaction level; median over the tumours of 31 GBM patients.

For the substance “DNMT3A (DNA methyltransferase 3A) (from UniProt Q9Y6K1 1-912) (enzyme)”, the median of DNMT3A/ISGF3γ interaction is 12.5.

Values taken from patent publication US20180238885A1.
